These results are taken from patent publication US20220308043A1, “FLUORESCENT PROBES FOR IDENTIFICATION AND QUANTIFICATION OF HEPATIC TRANSPORTERS IN VITRO AND IN VIVO” (Université d'Orléans, priority 2021, published 2022).

Data set [1] concerns primary human hepatocyte (PHH). The experiment in a line: Uptake evaluation, Test group 1: active transport or passive diffusion (37° C. vs 4° C.) in hepatocyte suspension. Particulars: probe 5 μM, 30 minutes, 37° C. and 4° C. The method, then:
Four batches of primary human hepatocyte (PHH) are used for in vitro uptake assay:
Cryopreserved PHH are thawed in one-step Hepatocyte Thawing/Plating medium (MIL130) and then cells number and viability were evaluated with trypan blue exclusion test prior to cell treatment.
Influx study. Cryopreserved PHH are thawed in one-step Hepatocyte Thawing/Plating medium (MIL130) and then the cell number and viability are evaluated with trypan blue exclusion test prior to cell treatment. The cells were grown in MW96 at a density of 0.2*10^6/well.
Incubation for uptake evaluation. Incubation buffer: HBSS buffer containing 10 mM Herpes and 0.1% BSA, pH 7.4
The active uptake of each probe was tested according to the Test group 1 conditions. The results are presented in the table below as the percentage of active uptake compared to total uptake.

The target in data set [2] is T1, NTCP (Homo sapiens, UniProt Q14973).
T1 construct: Cryopreserved PHH are thawed in one-step Hepatocyte Thawing/Plating medium; endogenous in cells; host or cells: cryopreserved primary human hepatocytes (PHH)
T1 sequence (Q14973 1-349): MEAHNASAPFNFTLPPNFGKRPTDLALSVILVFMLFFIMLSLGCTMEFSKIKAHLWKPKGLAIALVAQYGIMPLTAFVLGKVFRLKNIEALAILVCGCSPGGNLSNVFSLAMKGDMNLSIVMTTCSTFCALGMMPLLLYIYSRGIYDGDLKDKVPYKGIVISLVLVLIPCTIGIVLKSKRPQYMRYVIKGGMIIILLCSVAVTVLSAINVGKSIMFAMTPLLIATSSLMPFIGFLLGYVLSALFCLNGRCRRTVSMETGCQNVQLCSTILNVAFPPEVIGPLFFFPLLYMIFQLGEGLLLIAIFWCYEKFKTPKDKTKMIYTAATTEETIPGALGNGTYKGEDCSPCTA
Put plainly: Uptake evaluation, Test group 2: probe uptake in PHH with Myrcludex (NTCP inhibitor). It is filed as in vitro ADME. As to conditions: conclusion from % of inhibition.

The test system of data set [3] is OATs. The experiment in a line: Uptake evaluation, Test group 2: probe uptake in PHH with Indomethacine/Diclofenac (OATs inhibitor). Particulars: conclusion from % of inhibition.

On to “Tauro-nor-THCA-24-DBD [reference compound]”, for which the Active uptake classification entry in data set [1] was “High”. The “% Active uptake (Mean value)” value in data set [1] (active uptake compared to total uptake) stood at 83%. Further, the “involvement of NTCP in the uptake of the probe” value in data set [2] was “major involvement of NTCP”. The “involvement of OATs in the uptake of the probe” value in data set [3] is “partially the participation of OATs”.
